From publication PMC2275139 (Nucleic Acids Research, 2008) come the findings set out here.

The assay addresses T1, IcaR (Staphylococcus epidermidis, UniProt Q5HKQ1).
T1 sequence (Q5HKQ1 1-185): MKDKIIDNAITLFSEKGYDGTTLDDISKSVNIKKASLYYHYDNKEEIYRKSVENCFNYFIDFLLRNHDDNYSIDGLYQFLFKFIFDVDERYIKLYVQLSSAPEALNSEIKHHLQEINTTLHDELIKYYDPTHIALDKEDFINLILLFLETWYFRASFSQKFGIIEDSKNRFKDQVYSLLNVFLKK
The experiment in a line: isothermal titration calorimetry. Type of assay: binding. In general terms: ITC needs no label: the signal is the heat of the interaction.

Each structure is given as a SMILES string. pKd: −log10 of the molar value.

A word on the pKd: it is the Kd on a negative log10 scale, so that one unit is a factor of ten. A higher pKd goes with a small Kd. Take `[H]/N=C(/N)N[C@H]1[C@H](O)[C@@H](O)[C@H](O[C@@H]2O[C@@H](C)[C@](O)(C=O)[C@H]2O[C@@H]2O[C@@H](CO)[C@H](O)[C@@H](O)[C@@H]2NC)[C@@H](N/C(N)=N\[H])[C@@H]1O` [Streptomycin]: the negative logarithm of the Kd (pKd) was 4.90.
